{"sequences": {"note": "By UniProt entry, the sequences of proteins in these tests, tags left out. Residues count along the entry.", "UniProt P06756, 31-1048, chain 1 of 2": "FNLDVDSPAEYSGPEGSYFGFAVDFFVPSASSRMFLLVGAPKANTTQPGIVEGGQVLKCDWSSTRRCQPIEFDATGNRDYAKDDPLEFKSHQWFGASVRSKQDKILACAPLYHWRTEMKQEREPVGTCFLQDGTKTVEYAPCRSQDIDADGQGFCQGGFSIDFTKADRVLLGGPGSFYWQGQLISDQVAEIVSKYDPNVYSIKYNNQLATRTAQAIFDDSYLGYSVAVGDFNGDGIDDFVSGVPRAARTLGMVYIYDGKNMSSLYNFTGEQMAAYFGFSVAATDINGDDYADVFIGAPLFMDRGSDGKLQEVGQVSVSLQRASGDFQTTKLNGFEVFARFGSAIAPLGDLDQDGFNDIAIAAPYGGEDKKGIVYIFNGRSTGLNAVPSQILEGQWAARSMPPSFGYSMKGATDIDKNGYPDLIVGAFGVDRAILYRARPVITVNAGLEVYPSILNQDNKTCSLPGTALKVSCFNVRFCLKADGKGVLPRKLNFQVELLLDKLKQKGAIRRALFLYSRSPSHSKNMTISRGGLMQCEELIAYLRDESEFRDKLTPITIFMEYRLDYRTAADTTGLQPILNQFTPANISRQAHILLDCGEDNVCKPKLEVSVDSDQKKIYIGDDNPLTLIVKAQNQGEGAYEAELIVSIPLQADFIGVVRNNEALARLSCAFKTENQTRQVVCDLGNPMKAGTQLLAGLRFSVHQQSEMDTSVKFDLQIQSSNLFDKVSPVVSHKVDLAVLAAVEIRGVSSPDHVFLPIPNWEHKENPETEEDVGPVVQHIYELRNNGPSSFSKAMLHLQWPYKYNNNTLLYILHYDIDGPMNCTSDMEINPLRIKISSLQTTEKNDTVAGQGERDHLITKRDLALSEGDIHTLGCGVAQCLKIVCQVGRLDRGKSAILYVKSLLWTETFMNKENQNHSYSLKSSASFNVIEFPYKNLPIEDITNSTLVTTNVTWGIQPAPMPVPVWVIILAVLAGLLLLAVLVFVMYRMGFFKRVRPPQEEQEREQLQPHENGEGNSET", "integrin αvβ3, UniProt P05106, 27-788, chain 2 of 2": "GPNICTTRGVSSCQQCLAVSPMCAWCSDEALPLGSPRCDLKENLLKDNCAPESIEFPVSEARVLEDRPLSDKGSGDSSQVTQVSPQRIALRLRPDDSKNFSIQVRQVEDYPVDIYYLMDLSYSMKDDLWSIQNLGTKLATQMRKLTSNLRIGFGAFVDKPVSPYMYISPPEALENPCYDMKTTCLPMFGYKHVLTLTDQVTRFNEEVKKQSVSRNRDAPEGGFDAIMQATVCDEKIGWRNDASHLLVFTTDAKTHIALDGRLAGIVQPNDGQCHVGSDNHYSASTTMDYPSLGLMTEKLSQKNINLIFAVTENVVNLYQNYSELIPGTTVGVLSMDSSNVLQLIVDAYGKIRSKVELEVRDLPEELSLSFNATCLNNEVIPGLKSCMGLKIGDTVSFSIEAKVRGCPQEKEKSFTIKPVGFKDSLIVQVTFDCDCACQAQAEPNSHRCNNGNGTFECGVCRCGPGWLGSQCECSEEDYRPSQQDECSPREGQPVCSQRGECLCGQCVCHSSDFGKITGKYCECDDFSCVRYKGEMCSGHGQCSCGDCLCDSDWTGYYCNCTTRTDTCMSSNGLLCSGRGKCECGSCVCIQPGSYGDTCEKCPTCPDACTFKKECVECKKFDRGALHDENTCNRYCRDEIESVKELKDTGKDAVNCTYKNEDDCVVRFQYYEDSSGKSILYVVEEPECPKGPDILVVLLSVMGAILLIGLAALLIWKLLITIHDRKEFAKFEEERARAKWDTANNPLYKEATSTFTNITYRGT"}, "source": "patent US20100015058A1", "about": "(STANFORD UNIVERSITY, published 2010)", "biological_target": "T1, integrin αvβ3 (human, UniProt P06756 31-1048; P05106 27-788)", "T1 construct": "whole, on cells; Endogenous receptor on U87MG human glioblastoma cells in the IC50 assays; also called integrin alpha v beta 3; human integrin αvβ3", "test": "competitive binding with ^125I-c(RGDyK) on U87MG cells", "data": [{"binder": "NOTA-RGD-BBN (VII) (NOTA (from p-SCN-Bn-NOTA, SCN-amine reaction) on the amine of RGD-BBN; Aca between Glu and Gln; C-terminal amide (Met-NH2); cyclic (cyclo); D-Tyr at position 4; Lys side chain joined to the Glu …, also called NOTA-RGD-bombesin; ^64Cu-NOTA-RGD-BBN) peptide 1: RGDYK peptide 2: EQWAVGHLM", "values": [{"measurement": "IC50", "value": 22.6, "unit": "nM"}]}]}
